Values quoted from earlier work in patent US9394339B2, “Stabilized formulations of peptides and proteins protecting against non-enzymatic degradation” (Lyotropic Therapeutics, Inc., priority 2007, dated 2016).

Conditions: aqueous solution, pH 7.4, 37° C., Tris-HCl buffer

Substance: Ferritin (2FHA): human protein
- T1/10 (time to 10% degradation by deamidation): 7.0 days
